Measured values as given in patent publication US20120045393A1 (priority 2009, published 2012).
pEC50: −log10 of the molar value. Read-outs that look alike come from different tables or passages of the source.

Test system: LHRH binding sites on human ovarian cancer cells (EFO-27)
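Further: Cell-associated radioactivity on confluent EFO-27 monolayers in 96-well plates, measured by microplate scintillation counting.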

SMILES	pEC50	further results
N=C(N)NCCC[C@H](NC(=O)[C@H](CNC(=O)CN1CCN(CC(=O)O)CCN(CC(=O)O)CCN(CC(=O)O)CC1)NS(=O)(=O)c1ccccc1)C(=O)N[C@@H](Cc1c[nH]c2ccccc12)C(=O)N[C@@H](CO)C(=O)N[C@@H](Cc1c[nH]cn1)C(=O)N[C@H](CCCNC(=N)N)C(=O)N[C@@H](Cc1c[nH]c2ccccc12)C(=O)N[C@@H](Cc1ccc(C(=O)c2ccccc2)cc1)C(=O)N1CCC[C@H]1C(=O)NNC(N)=O [BRU-3056]	6.36	–
N=C(N)NCCC[C@H](NC(=O)[C@@H](Cc1ccc2ccccc2c1)NC(=O)CN1CCN(CC(=O)O)CCN(CC(=O)O)CCN(CC(=O)O)CC1)C(=O)N[C@@H](Cc1ccccc1)C(=O)N[C@@H](CO)C(=O)N[C@@H](Cc1c[nH]cn1)C(=O)N[C@H](CCCNC(=N)N)C(=O)N[C@@H](Cc1c[nH]c2ccccc12)C(=O)N[C@@H](Cc1ccc(C(=O)c2ccccc2)cc1)C(=O)N1CCC[C@H]1C(=O)NNC(N)=O [compound 3106]	6.37	–
N=C(N)NCCC[C@H](NC(=O)[C@@H](Cc1ccc2ccccc2c1)NC(=O)CN1CCN(CC(=O)O)CCN(CC(=O)O)CCN(CC(=O)O)CC1)C(=O)N[C@@H](Cc1c[nH]c2ccccc12)C(=O)N[C@@H](CC(N)=O)C(=O)N[C@@H](Cc1c[nH]cn1)C(=O)N[C@H](CCCNC(=N)N)C(=O)N[C@@H](Cc1c[nH]c2ccccc12)C(=O)N[C@@H](Cc1ccc(C(=O)c2ccccc2)cc1)C(=O)N1CCC[C@H]1C(=O)NNC(N)=O [compound 2956]	6.55	–
N=C(N)NCCC[C@H](NC(=O)[C@@H](Cc1ccc2ccccc2c1)NC(=O)CN1CCN(CC(=O)O)CCN(CC(=O)O)CCN(CC(=O)O)CC1)C(=O)N[C@@H](Cc1cccc2ccccc12)C(=O)N[C@@H](CO)C(=O)N[C@@H](Cc1c[nH]cn1)C(=O)N[C@H](CCCNC(=N)N)C(=O)N[C@@H](Cc1c[nH]c2ccccc12)C(=O)N[C@@H](Cc1ccc(C(=O)c2ccccc2)cc1)C(=O)N1CCC[C@H]1C(=O)NNC(N)=O [compound 3104]	6.60	–
N=C(N)NCCC[C@@H](NC(=O)[C@H](Cc1c[nH]cn1)NC(=O)[C@H](CO)NC(=O)[C@H](Cc1c[nH]c2ccccc12)NC(=O)[C@H](Cc1c[nH]cn1)NC(=O)[C@@H]1CCC(=O)N1)C(=O)N[C@@H](Cc1c[nH]c2ccccc12)C(=O)N[C@@H](Cc1ccc(C(=O)c2ccccc2)cc1)C(=O)N1CCC[C@H]1C(=O)NNC(N)=O [BRU-2822]	6.38	–
N=C(N)NCCC[C@H](NC(=O)[C@@H](Cc1ccc2ccccc2c1)NC(=O)CN1CCN(CC(=O)O)CCN(CC(=O)O)CCN(CC(=O)O)CC1)C(=O)N[C@@H](Cc1c[nH]c2ccccc12)C(=O)N[C@@H](CO)C(=O)N[C@@H](Cc1ccoc1)C(=O)N[C@H](CCCNC(=N)N)C(=O)N[C@@H](Cc1c[nH]c2ccccc12)C(=O)N[C@@H](Cc1ccc(C(=O)c2ccccc2)cc1)C(=O)N1CCC[C@H]1C(=O)NNC(N)=O [compound 2960]	–	pEC50 (Table 11: modification of amino acid at position 5, EFO-27 cells): 6.40
N=C(N)NCCC[C@H](NC(=O)CN1CCN(CC(=O)O)CCN(CC(=O)O)CCN(CC(=O)O)CC1)C(=O)N[C@@H](CCCNC(=N)N)C(=O)N[C@@H](Cc1c[nH]c2ccccc12)C(=O)N[C@@H](CO)C(=O)N[C@@H](Cc1c[nH]cn1)C(=O)N[C@H](CCCNC(=N)N)C(=O)N[C@@H](Cc1c[nH]c2ccccc12)C(=O)N[C@@H](Cc1ccc(C(=O)c2ccccc2)cc1)C(=O)N1CCC[C@H]1C(=O)NNC(N)=O [BRU-3050]	–	pEC50 (Table 5: modifications of amino acids at positions 1 and 2, in vitro binding on EFO-27 cells): 6.51
N=C(N)NCCC[C@@H](NC(=O)[C@H](Cc1c[nH]cn1)NC(=O)[C@H](CO)NC(=O)[C@H](Cc1c[nH]c2ccccc12)NC(=O)[C@H](Cc1c[nH]cn1)NC(=O)CN(CCCCCCN)C(=O)CNC(=O)CN1CCN(CC(=O)O)CCN(CC(=O)O)CCN(CC(=O)O)CC1)C(=O)N[C@@H](Cc1c[nH]c2ccccc12)C(=O)N[C@@H](Cc1ccc(C(=O)c2ccccc2)cc1)C(=O)N1CCC[C@H]1C(=O)NNC(N)=O [compound 2876]	–	pEC50 (Table 8: N-substituted amino acid at position 1 and Gly as linker, in vitro binding on EFO-27 cells): 6.30
N=C(N)NCCC[C@H](NC(=O)[C@@H](Cc1ccc2ccccc2c1)NC(=O)[C@@H](CCCCN)NC(=O)CN1CCN(CC(=O)O)CCN(CC(=O)O)CCN(CC(=O)O)CC1)C(=O)N[C@@H](Cc1c[nH]c2ccccc12)C(=O)N[C@@H](CO)C(=O)N[C@@H](Cc1c[nH]cn1)C(=O)N[C@H](CCCNC(=N)N)C(=O)N[C@@H](Cc1c[nH]c2ccccc12)C(=O)N[C@@H](Cc1ccc(C(=O)c2ccccc2)cc1)C(=O)N1CCC[C@H]1C(=O)NNC(N)=O [compound 3099]	–	pEC50 (Table 13: linker between AA1 and DO3A10CM, EFO-27 cells): 6.36
N=C(N)NCCC[C@H](NC(=O)[C@H](Cc1cnc2ccccc2c1)NC(=O)CN1CCN(CC(=O)O)CCN(CC(=O)O)CCN(CC(=O)O)CC1)C(=O)N[C@@H](Cc1c[nH]c2ccccc12)C(=O)N[C@@H](CO)C(=O)N[C@@H](Cc1c[nH]cn1)C(=O)N[C@H](CCCNC(=N)N)C(=O)N[C@@H](Cc1c[nH]c2ccccc12)C(=O)N[C@@H](Cc1ccc(C(=O)c2ccccc2)cc1)C(=O)N1CCC[C@H]1C(=O)NNC(N)=O [BRU-3057]	6.42	–
CC(=O)N[C@@H](Cc1ccc(CN)cc1)C(=O)N[C@@H](Cc1c[nH]cn1)C(=O)N[C@@H](Cc1c[nH]c2ccccc12)C(=O)N[C@@H](CO)C(=O)N[C@@H](Cc1c[nH]cn1)C(=O)N[C@H](CCCNC(=N)N)C(=O)N[C@@H](Cc1c[nH]c2ccccc12)C(=O)N[C@@H](Cc1ccc(C(=O)c2ccccc2)cc1)C(=O)N1CCC[C@H]1C(=O)NNC(N)=O [BRU-2839]	6.60	–
N=C(N)NCCC[C@H](NC(=O)[C@H](CCC1CCN(C(=N)N)CC1)NC(=O)CN1CCN(CC(=O)O)CCN(CC(=O)O)CCN(CC(=O)O)CC1)C(=O)N[C@@H](Cc1c[nH]c2ccccc12)C(=O)N[C@@H](CO)C(=O)N[C@@H](Cc1c[nH]cn1)C(=O)N[C@H](CCCNC(=N)N)C(=O)N[C@@H](Cc1c[nH]c2ccccc12)C(=O)N[C@@H](Cc1ccc(C(=O)c2ccccc2)cc1)C(=O)N1CCC[C@H]1C(=O)NNC(N)=O [BRU-3094]	6.46	–
N=C(N)NCCC[C@H](NC(=O)[C@@H](Cc1ccc2ccccc2c1)NC(=O)c1ccc(NC(=O)CNC(=O)CN2CCN(CC(=O)O)CCN(CC(=O)O)CCN(CC(=O)O)CC2)cc1)C(=O)N[C@@H](Cc1c[nH]c2ccccc12)C(=O)N[C@@H](CO)C(=O)N[C@@H](Cc1c[nH]cn1)C(=O)N[C@H](CCCNC(=N)N)C(=O)N[C@@H](Cc1c[nH]c2ccccc12)C(=O)N[C@@H](Cc1ccc(C(=O)c2ccccc2)cc1)C(=O)N1CCC[C@H]1C(=O)NNC(N)=O [compound 3002]	6.30	–
N=C(N)NCCC[C@@H](NC(=O)[C@H](Cc1c[nH]cn1)NC(=O)[C@H](CO)NC(=O)[C@H](Cc1c[nH]c2ccccc12)NC(=O)[C@H](Cc1c[nH]cn1)NC(=O)CN1CCN(CC(=O)O)CCN(CC(=O)O)CCN(CC(=O)O)CC1)C(=O)N[C@@H](Cc1c[nH]c2ccccc12)C(=O)N[C@@H](Cc1ccc(C(=O)c2ccccc2)cc1)C(=O)N1CCC[C@H]1C(=O)NNC(N)=O [BRU-2811]	6.44	–
N=C(N)NCCC[C@H](NC(=O)[C@H](CO)NC(=O)[C@H](Cc1c[nH]c2ccccc12)NC(=O)[C@H](CCCNC(=N)N)NC(=O)[C@@H](Cc1ccc2ccccc2c1)NC(=O)CN1CCN(CC(=O)O)CCN(CC(=O)O)CCN(CC(=O)O)CC1)C(=O)N[C@H](CCCNC(=N)N)C(=O)N[C@@H](Cc1c[nH]c2ccccc12)C(=O)N[C@@H](Cc1ccc(C(=O)c2ccccc2)cc1)C(=O)N1CCC[C@H]1C(=O)NNC(N)=O [compound 2959]	6.60	–
